Earlier results on one substance are cited in article PMC10682952.

By UniProt entry, the sequences of proteins in these tests, tags left out. Residues count along the entry.
UniProt P19235, 25-250: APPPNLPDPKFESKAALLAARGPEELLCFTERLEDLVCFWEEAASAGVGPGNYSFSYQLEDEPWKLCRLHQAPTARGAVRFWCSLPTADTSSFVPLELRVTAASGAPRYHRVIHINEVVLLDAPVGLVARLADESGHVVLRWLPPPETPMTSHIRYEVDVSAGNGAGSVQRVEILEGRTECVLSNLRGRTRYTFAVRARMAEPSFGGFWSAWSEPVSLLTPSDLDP

In this data set the target is EPOR ECD (Homo sapiens) (UniProt P19235). The data set is described as follows: radio-receptor assay.

One may read the Kd as the free concentration of one partner at which half of the binding sites on the other are occupied at equilibrium, for simple one-to-one binding. On to EPO (from UniProt P01588), for which the Kd was 0.17 nM.
